Source: PMC11532494 (Nature Communications, 2024)

Chains of the proteins cited; added tags and fusions are not shown. Residues count along the entry.
UniProt A0A067XIQ6, 1-369: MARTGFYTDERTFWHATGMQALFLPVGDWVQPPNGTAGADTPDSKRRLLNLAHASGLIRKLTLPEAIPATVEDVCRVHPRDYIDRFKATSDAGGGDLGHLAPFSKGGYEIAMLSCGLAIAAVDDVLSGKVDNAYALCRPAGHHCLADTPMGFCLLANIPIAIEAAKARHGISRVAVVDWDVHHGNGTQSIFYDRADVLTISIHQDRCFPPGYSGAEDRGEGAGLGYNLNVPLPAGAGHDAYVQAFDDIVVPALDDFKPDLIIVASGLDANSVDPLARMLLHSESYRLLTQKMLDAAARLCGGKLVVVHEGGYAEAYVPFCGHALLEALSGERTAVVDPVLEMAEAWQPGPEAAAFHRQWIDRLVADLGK

Molecular target: RwDmhA (1b) (Rhizorhabdus wittichii, UniProt A0A067XIQ6)
Assay: biochemical
Conditions: inhibitor 10 µM, individual replicates

## CC(/C=C/C(=O)NO)=C\[C@@H](C)C(=O)c1ccc(N(C)C)cc1 [TSA, trichostatin A]
  remaining activity at 10 µM: 7.1%
